The target in this experiment is von Hippel-Lindau disease tumor suppressor/Bromodomain-containing protein 4 (Homo sapiens, UniProt O60885+P40337). Briefly: PROTAC activity at HiBit tagged BRD4/VHL E3 ligase in human HEK293 cells assessed as induction of BRD4 degradation incubated for 5 hrs followed by compound washout and measured after 24 hrs in presence of VH032 by Western blot analysis. Type of experiment: cell-based. A general note: The HiBiT peptide binds its large partner to form an active luciferase.

The source made the active and inactive calls. The calls are words filed in the database; no cut-off is given here.

Take `Cc1ncsc1-c1ccc(CNC(=O)[C@@H]2C[C@@H](O)CN2C(=O)[C@@H](NC(=O)COCCOCCOCCNC(=O)C[C@@H]2N=C(c3ccc(Cl)cc3)c3c(sc(C)c3C)-n3c(C)nnc32)C(C)(C)C)cc1`: the outcome was Active.

These data come from ChEMBL document CHEMBL5620436, “Structure-Guided Design and Optimization of Covalent VHL-Targeted Sulfonyl Fluoride PROTACs” (J Med Chem, 2024).
